In US5780303A, “Method and composition for treating thrombosis” (priority 1995, dated 1998):
Values joined by “and” are separate entries in the source; they are usually repeats but may differ in a detail not shown here. Equal values may be shown once.

Chains of the proteins cited; added tags and fusions are not shown. Residues count along the entry.
UniProt P08648, 895-1049 partner limits assumed: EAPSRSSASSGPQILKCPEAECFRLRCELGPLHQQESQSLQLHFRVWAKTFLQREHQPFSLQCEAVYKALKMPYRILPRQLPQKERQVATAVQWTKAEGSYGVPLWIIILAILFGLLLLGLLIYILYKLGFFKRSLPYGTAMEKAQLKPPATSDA
UniProt P08648, 42-894 limits assumed: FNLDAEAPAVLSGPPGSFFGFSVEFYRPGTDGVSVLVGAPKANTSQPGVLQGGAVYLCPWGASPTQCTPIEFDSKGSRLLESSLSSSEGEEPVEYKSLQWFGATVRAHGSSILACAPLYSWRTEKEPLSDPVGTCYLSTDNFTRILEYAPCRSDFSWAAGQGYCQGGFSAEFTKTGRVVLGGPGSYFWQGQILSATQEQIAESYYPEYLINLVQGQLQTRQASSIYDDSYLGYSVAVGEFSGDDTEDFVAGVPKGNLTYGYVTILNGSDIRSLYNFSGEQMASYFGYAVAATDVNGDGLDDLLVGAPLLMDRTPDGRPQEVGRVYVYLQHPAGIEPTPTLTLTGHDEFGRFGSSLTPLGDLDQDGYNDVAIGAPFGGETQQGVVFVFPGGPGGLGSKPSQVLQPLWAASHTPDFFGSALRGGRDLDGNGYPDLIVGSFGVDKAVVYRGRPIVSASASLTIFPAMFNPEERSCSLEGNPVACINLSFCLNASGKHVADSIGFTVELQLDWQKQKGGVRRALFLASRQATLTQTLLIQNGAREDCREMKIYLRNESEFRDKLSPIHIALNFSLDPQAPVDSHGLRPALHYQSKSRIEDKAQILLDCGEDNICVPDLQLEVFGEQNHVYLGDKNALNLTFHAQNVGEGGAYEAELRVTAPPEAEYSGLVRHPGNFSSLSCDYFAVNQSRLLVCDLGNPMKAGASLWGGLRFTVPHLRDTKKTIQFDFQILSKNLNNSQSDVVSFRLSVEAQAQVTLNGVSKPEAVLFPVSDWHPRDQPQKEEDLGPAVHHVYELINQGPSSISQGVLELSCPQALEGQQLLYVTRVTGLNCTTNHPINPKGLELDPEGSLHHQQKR
UniProt P05106, 27-788: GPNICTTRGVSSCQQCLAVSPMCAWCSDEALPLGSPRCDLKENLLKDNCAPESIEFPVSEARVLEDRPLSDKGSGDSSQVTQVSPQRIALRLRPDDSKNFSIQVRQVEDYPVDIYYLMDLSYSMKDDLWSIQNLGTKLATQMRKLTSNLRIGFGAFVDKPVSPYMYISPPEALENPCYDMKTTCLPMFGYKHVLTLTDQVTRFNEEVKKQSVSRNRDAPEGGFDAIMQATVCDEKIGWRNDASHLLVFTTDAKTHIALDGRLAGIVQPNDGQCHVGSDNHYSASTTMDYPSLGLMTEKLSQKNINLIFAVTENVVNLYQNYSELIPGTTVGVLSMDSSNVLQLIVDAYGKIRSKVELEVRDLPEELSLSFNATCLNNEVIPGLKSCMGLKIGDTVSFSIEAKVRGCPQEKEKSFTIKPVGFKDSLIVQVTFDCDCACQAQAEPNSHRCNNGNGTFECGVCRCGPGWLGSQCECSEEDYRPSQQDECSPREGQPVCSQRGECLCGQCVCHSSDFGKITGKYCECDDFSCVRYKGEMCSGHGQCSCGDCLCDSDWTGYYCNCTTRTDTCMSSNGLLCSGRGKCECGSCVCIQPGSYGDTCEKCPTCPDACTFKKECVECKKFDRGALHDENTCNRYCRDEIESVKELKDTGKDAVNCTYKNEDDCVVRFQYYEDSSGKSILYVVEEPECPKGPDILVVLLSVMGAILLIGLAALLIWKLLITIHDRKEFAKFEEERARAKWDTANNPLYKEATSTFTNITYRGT
UniProt P06756, 891-1048 partner limits assumed: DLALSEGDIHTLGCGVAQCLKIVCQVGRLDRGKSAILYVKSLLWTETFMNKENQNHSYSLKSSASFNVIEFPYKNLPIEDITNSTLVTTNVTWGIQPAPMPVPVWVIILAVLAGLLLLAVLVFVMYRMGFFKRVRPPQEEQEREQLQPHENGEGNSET
UniProt P06756, 31-889 limits assumed: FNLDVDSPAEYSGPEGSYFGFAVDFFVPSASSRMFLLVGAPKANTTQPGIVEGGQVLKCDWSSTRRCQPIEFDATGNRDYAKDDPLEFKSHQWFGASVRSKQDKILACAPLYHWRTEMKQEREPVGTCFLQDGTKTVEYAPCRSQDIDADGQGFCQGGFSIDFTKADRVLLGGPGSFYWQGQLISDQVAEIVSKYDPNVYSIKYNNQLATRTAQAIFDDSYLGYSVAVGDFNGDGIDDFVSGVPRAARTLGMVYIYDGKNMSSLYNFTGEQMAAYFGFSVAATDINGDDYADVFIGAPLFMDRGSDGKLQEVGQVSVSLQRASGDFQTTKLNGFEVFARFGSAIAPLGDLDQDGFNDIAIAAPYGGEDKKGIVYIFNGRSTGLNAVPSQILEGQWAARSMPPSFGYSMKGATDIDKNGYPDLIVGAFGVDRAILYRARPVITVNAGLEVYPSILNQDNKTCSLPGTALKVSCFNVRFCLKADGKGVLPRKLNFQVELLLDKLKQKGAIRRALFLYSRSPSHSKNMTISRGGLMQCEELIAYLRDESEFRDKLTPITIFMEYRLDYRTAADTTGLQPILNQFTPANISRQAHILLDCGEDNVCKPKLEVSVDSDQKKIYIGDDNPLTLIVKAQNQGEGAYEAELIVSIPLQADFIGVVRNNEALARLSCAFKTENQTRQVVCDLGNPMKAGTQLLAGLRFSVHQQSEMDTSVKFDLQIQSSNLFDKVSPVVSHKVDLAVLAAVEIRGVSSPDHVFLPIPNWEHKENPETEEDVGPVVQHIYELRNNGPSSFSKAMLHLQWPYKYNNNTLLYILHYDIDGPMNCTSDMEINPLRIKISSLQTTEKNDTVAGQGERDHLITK
UniProt P08514, 32-887 limits assumed: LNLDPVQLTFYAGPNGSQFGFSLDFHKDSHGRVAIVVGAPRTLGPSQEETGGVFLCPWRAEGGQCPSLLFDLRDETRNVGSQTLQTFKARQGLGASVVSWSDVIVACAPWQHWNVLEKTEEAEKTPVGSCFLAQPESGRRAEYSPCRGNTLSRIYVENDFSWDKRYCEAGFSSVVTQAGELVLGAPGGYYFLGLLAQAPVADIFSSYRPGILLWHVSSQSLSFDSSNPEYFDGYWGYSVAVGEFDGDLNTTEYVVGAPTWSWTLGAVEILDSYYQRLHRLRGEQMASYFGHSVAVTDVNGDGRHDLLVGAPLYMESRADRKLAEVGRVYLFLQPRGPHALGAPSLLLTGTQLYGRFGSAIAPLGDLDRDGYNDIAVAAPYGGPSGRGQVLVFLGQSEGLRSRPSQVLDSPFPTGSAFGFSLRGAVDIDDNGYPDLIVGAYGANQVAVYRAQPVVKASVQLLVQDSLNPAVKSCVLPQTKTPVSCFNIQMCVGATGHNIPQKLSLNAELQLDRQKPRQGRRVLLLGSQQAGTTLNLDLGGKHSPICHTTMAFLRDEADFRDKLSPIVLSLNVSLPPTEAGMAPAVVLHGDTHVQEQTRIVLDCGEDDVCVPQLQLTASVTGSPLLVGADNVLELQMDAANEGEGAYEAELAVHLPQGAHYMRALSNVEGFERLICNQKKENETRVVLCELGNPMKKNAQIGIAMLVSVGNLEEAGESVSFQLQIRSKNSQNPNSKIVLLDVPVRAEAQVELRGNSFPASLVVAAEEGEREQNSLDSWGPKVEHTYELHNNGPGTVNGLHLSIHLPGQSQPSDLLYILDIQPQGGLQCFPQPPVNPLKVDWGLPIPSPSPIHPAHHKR
UniProt P08514, 891-1039 partner limits assumed: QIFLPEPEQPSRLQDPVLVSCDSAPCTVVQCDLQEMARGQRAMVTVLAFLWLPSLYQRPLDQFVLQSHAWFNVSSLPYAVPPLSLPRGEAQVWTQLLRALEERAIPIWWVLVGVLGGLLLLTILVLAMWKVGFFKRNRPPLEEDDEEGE

Tests used:
[1] = molecular target: T1, Fibronectin receptor (Fn-R) (Homo sapiens, UniProt P05556+P08648); conditions: read-out: FnR Binding
T1 construct: Fibronectin receptor (Fn-R) was similarly purified from (100 mM) octyl glucoside-extracted human placenta; from tissue; host or cells: human placenta

[2] = Bleeding time before and after dose (Table IV); format: in vivo; conditions: dose per code
Method: Bleeding time was quantified at 1 hour before and one, three, and five hours after administration of the peptide. This was done by making a small (5 mm long and 1.5 mm deep) incision in the tongue and subsequently absorbing the exuded blood at this site every 15 seconds with a piece of Whatman filter paper until bleeding stopped. Platelet counts were determined with a Haema Count MK-4/HC platelet counting system.
Using the method described in Example V to measure ex vivo inhibition of platelet aggregation and the method described in Example VII to measure bleeding, four additional peptides were tested. These peptides included 11J, 11Q, 11K and 11V.

[3] = Peripheral blood flow (PBF) by laser doppler probe, rabbit ear; format: in vivo; conditions: bolus dose as printed per drug
Method: (§1) In an alternative series of experiments, (Table 2) PBF was measured quantitatively with a laser dopler flow probe (Perimed). The probe was positioned securely over the vascular bed of one ear and flow monitored continuously. Each inhibitor was infused and CBT measured in the opposing ear. No arterial catheter was placed for blood sampling, consequently XPA […] in these animals.
As positive control, epinephrine was infused intravenously (1 mg over 2 minutes) at 60 minutes. The resulting vasoconstriction reduced flow to near 0 flow units within 5 minutes.

[4] = molecular target: T2, vitronectin receptor (Vn-R) (Homo sapiens, UniProt P05106+P06756); assay: VnR binding, ELISA or liposome attachment assay (Table I)
T2 construct: from tissue; host or cells: human placenta
Method: Receptor and ligand purifications were performed according to the methods in this Example or those in Example XI.C. Receptors were purified according to the procedures of Pytela et al. (Methods Enzymol. 144:475 (1987)), incorporated herein by reference. […] After extraction, the suspension was filtered over a Sepharose 6B column and then applied to a GRGDSPK column. Except where stated, all procedures were carried out at 4° C. The peptide column was washed with three volumes of Tris-buffered saline (TBS) containing 1 mm Ca^2+l and 25 mM CG and then with TBS containing 1 mM Ca^2+ and 25 mM octyl thioglucoside (OTG) at room temperature. […] Finally, Ca^2+ and Mg^2+ were added to eluted fractions to achieve final concentrations of 1 mM for both ions.
Maxisorp microtiter plates were coated with 2 μg/ml human vitronectin dissolved in PBS ([…]) and stored overnight at 4° C. The plates were washed two times with PBS-0.05% Tween-20 (wash buffer) and blocked by incubating with about 150 μl/well of assay buffer (1%, BSA (RIA grade or better) in 50 mM Tris-HCl, 100 mM NaCl, 1 mM MgCl2, CaCl2, MnCl2 pH 7.4) for 60 minutes. Dilutions of standards were prepared and putative inhibitors (Table 2) were dissolved in assay buffer. The blocked plates were emptied and 20 μl/well of inhibitor or standard solution was added to each well. Twenty-five μl of a 30 μg/ml solution of purified αv β3 in assay buffer was pipetted into the coated plate. The final concentration of receptor in the assay well was about 15 μg/ml. The plate was incubated on a shaker for 60 minutes. Meanwhile, for each microtite plate, 6 ml buffer solution containing 1.5 g/ml of mouse monoclonal antibody specific for β3is prepared. To this solution was added the secondary antibody, which is anti-mouse-Fc-HRP antibody conjugate. For example, for one plate, 6 ml of a 1.5 μg/ml mouse Mab solution was prepared to which was added 1 μl of anti-mouse-Fc-HRP antibody stock, (this represents a 1:6000 dilution of the antibody--HRP conjugate). This mixture was allowed to incubate during the receptor-inhibitor incubation. The assay plates were washed 4 times with PBS-Tween and 50 μl/well of the antibody mixture was then pipetted into the plate for a 60 minute incubation. The plate was washed 4 times and the color reaction was developed with 50 μl/well of 0.67 mg/ml o-phenyldiamine in PBS containing 0.012% H2 O2. […] The plates were read at 492-405 nm and the data analyzed by four-parameters fit.
This assay was performed with minor modifications, according to the method of Pytela et al., Methods Enzymol. […] An aliquot of the dialyzed sample was counted to assess radioactive content; the receptor-liposome mixture was then diluted to obtain a set radioactivity per unit volume. […]

platelets = assay: Ex vivo platelet aggregation in canine coronary thrombosis model; design: species or system dog; conditions: 10 mg/kg; all three time points
Method: For all ex vivo studies (see FIG. 3), control aggregation values were standardized to the percentages of light transmission observed in PRP and PPP samples (0% and 100%, respectively).
Animals were randomly assigned to two treatment groups: vehicle control (i.e., normal saline) or RGD peptides at various concentrations. Peptides were administered intra-atrially in both bolus and continuous injections. Each bolus injection consisted of 0.5 to 10 mg/kg and was administered 15 minutes before application of the current. A continuous infusion of the same peptide was then started immediately after completion of this initial injection. Animals received a 25 μg/kg/min to 200 μg/kg/min infusion. The anti-thrombotic effects of the peptides were monitored until 30 minutes after the occurrence of a persistent, occlusive thrombus or five hours after the initiation of electrical stimulation (whichever resulted first). […]
Platelet counts and ex vivo aggregation studies were performed one hour before and 1, 3, and 5 hours after application of anodal direct current. Samples of arterial blood were drawn into plastic syringes containing 3.8% trisodium citrate (giving a 1:10 final dilution) and platelet aggregation determined as described in Example V.
Platelet aggregation was also determined ex vivo at one, three, and five hours after current application. […]

[5] = Bleeding time, clotting time and hematology in baboons; format: in vivo, baboon
Method: Twenty-four hours before the ex vivo shunt was established, platelets were isolated from 500 ml of blood from the test animal and labelled with ca. of 500 microcuries of indium-111 oxine (Medi+Physics, Emeryville, Calif.), which irreversibly and specifically binds to platelets with an efficiency of 50%. Immediately after labelling, these platelets were then injected back into the animal and allowed to circulate for 24 hours. Immediately before the start of the study, fibrinogen that had been isolated from the animal and labelled with iodine-131 (DuPont Nuclear, Boston, Mass.) was also injected back into the animal. Also at this time, baseline determinations of the clotting and template bleeding times were made, and blood samples were drawn for hematology studies.
At one- and two-hour time points, template bleeding times were measured, and blood samples were drawn to assess the hematology aggregation studies. Platelet aggregation studies were performed as described in Example V using ADP as the stimulus.
Upon the completion of each study, each shunt was flushed with lactated Ringer's solution, and each graft was then removed. Sections of these grafts were subjected to liquid scintillation counting to determine their content of residual ^131 iodine-fibrinogen and ^111 indium-platelets. The catheters in the femoral artery and vein were then removed, and hemostasis was achieved by compression. Finally, post-procedural blood samples were drawn, and determinations of template bleeding and clotting times were also made.

GP IIb/IIIa = GP IIb/IIIa (Homo sapiens, UniProt P05106+P08514); assay: IIb/IIIa binding, ELISA or liposome attachment assay (Table I); design: Platelet glycoprotein Ilb/IIIa was purified from outdated human platelets; from tissue; host or cells: outdated human platelets; conditions: no unit printed in Table I
[6] = Cutaneous bleeding time (CBT), rabbit; format: in vivo; conditions: bolus dose as printed per drug
Method: Unanesthetized male New Zealand White rabbits (2.5-3.5 kg) were placed in a standard rabbit restrainer. Ears were shaved and a 20G teflon catheter with flowswitch (Viggo) was placed in the medial artery, flushed with saline and locked with 1 ml of heparinized saline (10 m/ml). A 22G catheter (Abbott) fitted with an injection cap (Medex) was placed in the marginal vein of the same ear. Saline or a GP IIb III3 receptor antagonist, at a concentration of 1 to 3 mg/ml, was infused via the venous catheter. At time 0, 41% of the dose was given as a bolus over 2 minutes. The remainder was continuously infused over the following 60 minutes. Blood samples (3.2 ml) were collected into syringes without needles via the arterial catheter at -10, -5, 10, 45 and 60 minutes. The first 0.5 ml was discarded and the following 2.7 ml was collected directly into a syringe containing 0.3 ml of 3.8% sodium citrate. The sample was divided into 1.5 ml aliquots and centrifuged at room temperature for 5 seconds at 12,000 G. The resulting platelet rich plasma (PRP) is used to measure ex-vivo platelet aggregation (XPA). At -10 and 60 minutes an additional 1.5 ml sample is drawn for an automated blood count (Baker Instruments). Catheters are flushed and locked after every sample.
CBT Was measured at -10, -5, 10, and 45 minutes on the opposite ear, using an automated incision-making instrument Surgicutt^R, ITD). An incision (5 mm×1 mm deep) was made on the dorsal surface of the ear at sites not supplied by major blood vessels. Blood was blotted away with absorbent paper placed near the incision site, every 2 to 15 seconds, to a maximum of 15 minutes. Cessation of bleeding was defined as no blood forming at the incision site for 15 seconds. The range of duplicate CBT in 40 normal rabbits was 0.88 to 3.38 minutes.
as §1

[7] = animal 1, immediately after completion of second shunt
[8] = time 10 min, listed as R(PmC)GHRGD(Y-OMe)RCR
[9] = time 45 min, listed as R(PmC)GHRGD(Y-OMe)RCR

Ac(dPen)IPRGD(O-Me-Tyr)RC-NH2
IC50 [1]: 6.75 µM

Ac-CNPKGD(Y-OMe)RC-NH2 [11Q]
Post dose bleeding time [2]: 3.5 min

Ac-CNPRGD(Y-OMe)(Nle)C-NH2 [11V]
Post dose bleeding time [2]: 21 min

Ac-CNPRGD(Y-OMe)AC-NH2 [11K]
Post dose bleeding time [2]: > 30 min

Ac-CNPRGD(Y-OMe)EC-NH2 [11J]
Post dose bleeding time [2]: > 30 min

Ac-CNPRGD(Y-OMe)RCNH2 [8x]
PBF (units) ([3]; time 0 min (pre-infusion)): 263 units
PBF (units) ([3]; time 10 min): 317 units
PBF (units) ([3]; time 45 min): 293 units

D(Pmc)GHRGD(O-Me-Tyr)RCR
IC50 [4]: 0.85 µM

G(Pen)GHRGDLRCA [2G]
ex vivo inhibition of AA-stimulated response relative to control (platelets): 43-70%
ex vivo inhibition of collagen-stimulated response relative to control (platelets): 12-50%
template bleeding and clotting times ([5]; animal 1): did not lower
platelet count reduced [5, 7]: 14%
white blood cell count reduced [5, 7]: 37%
template bleeding time, clotting time, all blood cell counts ([5]; animal 2): no effect

G(Pen)GRGDLPCA
IC50 [4]: 0.013 µM

R(Pmc)GHRGD(O-Me-Tyr)RCR
IC50 [1]: 6.4 µM and 8.7 µM
IC50 [4]: 9.9 µM and 6.04 µM
IC50 (GP IIb/IIIa): 0.06 µM and 0.07 µM

R(Pmc)GHRGD(Y-OMe)RCR
CBT ([6]; time 0 min (pre-infusion)): 2.9 min
CBT ([6]; time 0 min (pre-infusion), listed as R(PmC)GHRGD(Y-OMe)RCR): 2.1 min
CBT ([6]; time 10 min): 0.8 min
CBT [6, 8]: 3.8 min
CBT ([6]; time 45 min): 1.5 min
CBT [6, 9]: 1.2 min
PBF (units) ([3]; time 10 min): 5 units
PBF (units) [3, 8]: 0 units
PBF (units) ([3]; time 45 min): 360 units
PBF (units) [3, 9]: 263 units

R(am-Pmp)GHRGDLRCR [R(am-Pmp)GHRGDLRCR-1]
IC50 [1]: 1.1 µM
IC50 (GP IIb/IIIa): 0.4 µM

T(Pmc)GRRGD(O-Me-Tyr)RCR
IC50 [1]: 10 µM
IC50 [4]: 10 µM
IC50 (GP IIb/IIIa): 0.052 µM
